Earlier results in US12409112B2, “Pressurized nanoemulsion” (Biofrontera Bioscience GmbH, priority 2023, dated 2025).

Settings: cited from earlier work

## betamethasone propionate [BMP]
  octanol-water partition coefficient (log P): 1.14
